Results reported in PubChem BioAssay (NCI).
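Briefly, cells in 96-well plates were exposed to five compound concentrations for 48 h, and endpoints were estimated by linear interpolation. GI50 = concentration required for 50% inhibition of growth. TGI denotes the concentration required for complete inhibition of growth.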

Legend:
Experiment in all cases: NCI anticancer screen, dose series, 48 h
KM12 colon = system: KM12 colon
COLO 205 colon = system: COLO 205 colon
UACC-257 melanoma = system: UACC-257 melanoma
NCI-H23 lung = system: NCI-H23 lung
SK-OV-3 ovarian = system: SK-OV-3 ovarian
MOLT-4 leukemia = system: MOLT-4 leukemia
SF-295 CNS = system: SF-295 CNS
UACC-62 melanoma = system: UACC-62 melanoma
SN12C renal = system: SN12C renal
K-562 leukemia = system: K-562 leukemia
OVCAR-8 ovarian = system: OVCAR-8 ovarian
HOP-18 NSCLC = system: HOP-18 NSCLC
XF 498 CNS = system: XF 498 CNS
U251 CNS = system: U251 CNS
DMS 114 small cell lung = system: DMS 114 small cell lung
SNB-78 CNS = system: SNB-78 CNS
HCT-116 colon = system: HCT-116 colon
UO-31 renal = system: UO-31 renal
RXF 393 renal = system: RXF 393 renal
KM20L2 colon = system: KM20L2 colon
DMS 273 small cell lung = system: DMS 273 small cell lung
A549 NSCLC = system: A549 NSCLC
HCT-15 colon = system: HCT-15 colon
LOX IMVI melanoma = system: LOX IMVI melanoma
CCRF-CEM leukemia = system: CCRF-CEM leukemia
MALME-3M melanoma = system: MALME-3M melanoma
M19-MEL melanoma = system: M19-MEL melanoma
DLD-1 colon = system: DLD-1 colon
HOP-62 NSCLC = system: HOP-62 NSCLC
SF-268 CNS = system: SF-268 CNS
SK-MEL-5 melanoma = system: SK-MEL-5 melanoma
EKVX NSCLC = system: EKVX NSCLC
SK-MEL-2 melanoma = system: SK-MEL-2 melanoma
RPMI-8226 leukemia = system: RPMI-8226 leukemia
HT29 colon = system: HT29 colon
SNB-75 CNS = system: SNB-75 CNS
TK-10 renal = system: TK-10 renal
ACHN renal = system: ACHN renal
NCI-H522 lung = system: NCI-H522 lung
HL-60(TB) leukemia = system: HL-60(TB) leukemia
SW-620 colon = system: SW-620 colon
A498 renal = system: A498 renal
SNB-19 CNS = system: SNB-19 CNS
OVCAR-3 ovarian = system: OVCAR-3 ovarian
OVCAR-5 ovarian = system: OVCAR-5 ovarian
NCI-H322M lung = system: NCI-H322M lung
786-0 renal = system: 786-0 renal
IGROV1 ovarian = system: IGROV1 ovarian
NCI-H460 lung = system: NCI-H460 lung
HCC-2998 colon = system: HCC-2998 colon
SK-MEL-28 melanoma = system: SK-MEL-28 melanoma
NCI-H226 lung = system: NCI-H226 lung
SR leukemia = system: SR leukemia
OVCAR-4 ovarian = system: OVCAR-4 ovarian
SF-539 CNS = system: SF-539 CNS

C[N+](CCCl)(CCCl)Cc1ccc([N+](=O)[O-])cc1
GI50 (KM12 colon): 88.7 µM
TGI (KM12 colon): > 100 µM
GI50 (COLO 205 colon): > 100 µM
TGI (COLO 205 colon): > 100 µM
GI50 (UACC-257 melanoma): > 100 µM
TGI (UACC-257 melanoma): > 100 µM
GI50 (NCI-H23 lung): > 100 µM
TGI (NCI-H23 lung): > 100 µM
GI50 (SK-OV-3 ovarian): > 100 µM
TGI (SK-OV-3 ovarian): > 100 µM
GI50 (MOLT-4 leukemia): > 100 µM
TGI (MOLT-4 leukemia): > 100 µM
GI50 (SF-295 CNS): > 100 µM
TGI (SF-295 CNS): > 100 µM
GI50 (UACC-62 melanoma): > 100 µM
TGI (UACC-62 melanoma): > 100 µM
GI50 (SN12C renal): > 100 µM
TGI (SN12C renal): > 100 µM
GI50 (K-562 leukemia): > 100 µM
TGI (K-562 leukemia): > 100 µM
GI50 (OVCAR-8 ovarian): > 100 µM
TGI (OVCAR-8 ovarian): > 100 µM
GI50 (HOP-18 NSCLC): 41.9 µM
TGI (HOP-18 NSCLC): > 100 µM
GI50 (XF 498 CNS): > 100 µM
TGI (XF 498 CNS): > 100 µM
GI50 (U251 CNS): > 100 µM
TGI (U251 CNS): > 100 µM
GI50 (DMS 114 small cell lung): > 100 µM
TGI (DMS 114 small cell lung): > 100 µM
GI50 (SNB-78 CNS): > 100 µM
TGI (SNB-78 CNS): > 100 µM
GI50 (HCT-116 colon): > 100 µM
TGI (HCT-116 colon): > 100 µM
GI50 (UO-31 renal): > 100 µM
TGI (UO-31 renal): > 100 µM
GI50 (RXF 393 renal): > 100 µM
TGI (RXF 393 renal): > 100 µM
GI50 (KM20L2 colon): > 100 µM
TGI (KM20L2 colon): > 100 µM
GI50 (DMS 273 small cell lung): > 100 µM
TGI (DMS 273 small cell lung): > 100 µM
GI50 (A549 NSCLC): > 100 µM
TGI (A549 NSCLC): > 100 µM
GI50 (HCT-15 colon): > 100 µM
TGI (HCT-15 colon): > 100 µM
GI50 (LOX IMVI melanoma): > 100 µM
TGI (LOX IMVI melanoma): > 100 µM
GI50 (CCRF-CEM leukemia): > 100 µM
TGI (CCRF-CEM leukemia): > 100 µM
GI50 (MALME-3M melanoma): > 100 µM
TGI (MALME-3M melanoma): > 100 µM
GI50 (M19-MEL melanoma): > 100 µM
TGI (M19-MEL melanoma): > 100 µM
GI50 (DLD-1 colon): > 100 µM
TGI (DLD-1 colon): > 100 µM
GI50 (HOP-62 NSCLC): > 100 µM
TGI (HOP-62 NSCLC): > 100 µM
GI50 (SF-268 CNS): > 100 µM
TGI (SF-268 CNS): > 100 µM
GI50 (SK-MEL-5 melanoma): > 100 µM
TGI (SK-MEL-5 melanoma): > 100 µM
GI50 (EKVX NSCLC): > 100 µM
TGI (EKVX NSCLC): > 100 µM
GI50 (SK-MEL-2 melanoma): > 100 µM
TGI (SK-MEL-2 melanoma): > 100 µM
GI50 (RPMI-8226 leukemia): > 100 µM
TGI (RPMI-8226 leukemia): > 100 µM
GI50 (HT29 colon): > 100 µM
TGI (HT29 colon): > 100 µM
GI50 (SNB-75 CNS): 33.6 µM
TGI (SNB-75 CNS): > 100 µM
GI50 (TK-10 renal): > 100 µM
TGI (TK-10 renal): > 100 µM
GI50 (ACHN renal): > 100 µM
TGI (ACHN renal): > 100 µM
GI50 (NCI-H522 lung): > 100 µM
TGI (NCI-H522 lung): > 100 µM
GI50 (HL-60(TB) leukemia): > 100 µM
TGI (HL-60(TB) leukemia): > 100 µM
GI50 (SW-620 colon): > 100 µM
TGI (SW-620 colon): > 100 µM
GI50 (A498 renal): > 100 µM
TGI (A498 renal): > 100 µM
GI50 (SNB-19 CNS): > 100 µM
TGI (SNB-19 CNS): > 100 µM
GI50 (OVCAR-3 ovarian): > 100 µM
TGI (OVCAR-3 ovarian): > 100 µM
GI50 (OVCAR-5 ovarian): > 100 µM
TGI (OVCAR-5 ovarian): > 100 µM
GI50 (NCI-H322M lung): > 100 µM
TGI (NCI-H322M lung): > 100 µM
GI50 (786-0 renal): > 100 µM
TGI (786-0 renal): > 100 µM
GI50 (IGROV1 ovarian): > 100 µM
TGI (IGROV1 ovarian): > 100 µM
GI50 (NCI-H460 lung): > 100 µM
TGI (NCI-H460 lung): > 100 µM
GI50 (HCC-2998 colon): > 100 µM
TGI (HCC-2998 colon): > 100 µM
GI50 (SK-MEL-28 melanoma): > 100 µM
TGI (SK-MEL-28 melanoma): > 100 µM
GI50 (NCI-H226 lung): 80.4 µM
TGI (NCI-H226 lung): > 100 µM
GI50 (SR leukemia): > 100 µM
TGI (SR leukemia): > 100 µM
GI50 (OVCAR-4 ovarian): > 100 µM
TGI (OVCAR-4 ovarian): > 100 µM
GI50 (SF-539 CNS): > 100 µM
TGI (SF-539 CNS): > 100 µM
